Earlier results on one substance are cited in publication PMC9871032 (2023).

Sequences of proteins named here, by UniProt entry; tags and fusion partners are left off. Residues count along the entry.
UniProt P01589, 22-240, chain 1 of 3: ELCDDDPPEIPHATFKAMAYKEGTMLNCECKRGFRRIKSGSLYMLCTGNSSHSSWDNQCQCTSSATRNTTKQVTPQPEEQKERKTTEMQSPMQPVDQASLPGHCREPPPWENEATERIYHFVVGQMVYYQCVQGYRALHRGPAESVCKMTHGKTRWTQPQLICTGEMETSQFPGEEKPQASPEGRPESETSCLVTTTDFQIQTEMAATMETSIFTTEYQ

This data set deals with trimeric IL-2 receptor (Homo sapiens) (UniProt P01589). The conditions noted are these: cited from earlier work.

The term Kd denotes a measure of binding affinity in units of concentration. As to IL-2 (from UniProt P60568), the Kd was 0.01 nM.
